The nature of the test: Displacement of [131I]-[D-Ala2,4'-I-Phe8]alpha-Neoendorphin from opioid receptor in CD-1 mouse brain after 90 mins by competitive binding assay. The note with it: strain CD-1, Brain. (Displacement assays read how much labelled ligand stays bound in the presence of the test substance.)

The values that follow come from ChEMBL document CHEMBL2407029 (Bioorg Med Chem Lett, 2013).

Molecules are shown by their SMILES.

As for `CN(C(=O)Cc1ccc(Cl)c(Cl)c1)C1CCCCC1N1CCCC1` (stereo unspecified), the inhibitory constant (Ki) (commonly a dissociation constant, usually derived from enzyme kinetics or from competition with a known ligand) is more than 500 nM.
